AlphaSeq binding of Ab-14 heavy chain variants to a spike HR2 peptide

Source: Li et al. 2023 (doi:10.1038/s41467-023-39022-2), MIT Lincoln Laboratory and A-Alpha Bio; data file from the FLAb repository.

Binding partner: SARS-CoV-2 spike HR2 peptide, sequence PDVDLGDISGINAS.

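Phage display of a naive human antibody library on the peptide gave the parent. Designed CDR sequences, proposed from the first random library and measured here. Their group label is 14H_En_HC (En: ensemble of fine-tuned language models; HC: hill climbing; a sequence that several methods proposed may carry one label only). The scFvs were displayed on barcoded MATa yeast, the peptide on MATalpha yeast. Mating (16 h, 30 °C) was followed by selection of diploids and sequencing of their barcodes. The ratio of observed to expected reads was calibrated, replicate by replicate, on BCL2-family standards whose Kd was known from biolayer interferometry. There are six technical replicates.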

Parent scFv Ab-14: VH joined to VL by the linker GGGGSGGGGSGGGGS. Changes lie in the heavy chain CDRs alone.
VH: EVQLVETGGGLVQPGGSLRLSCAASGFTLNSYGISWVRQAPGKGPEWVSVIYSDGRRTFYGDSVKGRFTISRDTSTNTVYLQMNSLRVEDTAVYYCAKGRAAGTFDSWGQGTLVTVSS
VL: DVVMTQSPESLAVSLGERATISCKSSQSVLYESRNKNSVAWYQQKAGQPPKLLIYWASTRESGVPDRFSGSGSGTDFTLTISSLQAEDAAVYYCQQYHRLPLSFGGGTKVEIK

Each variant is given by its three heavy chain CDRs, as the data file delimits them; those of the parent are GFTLNSYGIS, VIYSDGRRTFYGDSVK, GRAAGTFDS.
Numbers give log10(Kd / nM), so 0 is 1 nM and 3 is 1 µM. Smaller is tighter.
"ND" means that the variant was in the library but no mating with the target was seen in that replicate; the authors take this as a sign of poor binding, and no number exists.
Values of this round are not directly comparable with the first-round values of the same sequences.

CDR-H1 | CDR-H2 | CDR-H3 | log10 Kd, replicates | signal with controls
GFDLNEYGIS | VIYADGRRTFYTDNVK | GQNAGTFDI | -0.29 / -0.49 / -0.56 / -0.66 / -0.55 / -0.12 | 1 of 18 (3.74)
GFNLNEYGIS | VIYADGRRTFYSDSVK | GTVGGTFDV | -0.34 / -0.14 / -0.55 / -0.23 / -0.63 / -0.10 | 2 of 18 (1.94)
GFNLDEYGIS | VIYADGRRTFYADSVK | GEAAGTFDV | -0.53 / -0.48 / -0.72 / -0.53 / -0.53 / -0.41 | 1 of 18 (1.62)
GFDLNEYGIS | VIYADGRRTAYIDSVK | GEAAGTFDE | -0.33 / -0.46 / -0.51 / -0.36 / -0.77 / -0.51 | 0 of 18
GFDLNEYGIS | VIYADGRRTAYIDSVK | GEVAGTFDN | -0.13 / -0.70 / -0.20 / -1.05 / -0.57 / -0.39 | 0 of 18
GFDLNEYGIS | VIYADGMRTAYTDSVK | GEAAGTFDL | -0.70 / -0.46 / -0.82 / -0.57 / -1.03 / -0.25 | 0 of 18
GFDLNEYGIS | VIYADGKRTAYSDSVK | GEVAGTFVQ | -1.07 / -0.99 / -1.11 / -1.01 / -1.28 / -0.39 | 0 of 18
GFDLNEYGIS | VIYADGRRTFYADSVK | GNEAGTFDQ | -0.74 / -0.88 / -0.77 / -0.72 / -0.76 / -0.40 | 0 of 18
GFDLDEYGIS | VIYADGRRTFYTDSVK | GEFAGTFDE | ND / ND / ND / ND / ND / ND | 0 of 18
GFSLDEYGIS | VIYADGKRTFYADSVK | GNSAGTFDS | 0.58 / 0.04 / 0.46 / -0.21 / 0.33 / 0.03 | 1 of 18 (1.25)
GFDLNEYGIS | VIYADGRRTFYSDSVK | GENAGFFDA | ND / ND / ND / ND / ND / ND | 0 of 18
GFDLEDYGIS | VIYADGRRTFYADSVK | GEIAGTFDL | 0.27 / 0.16 / 0.25 / 0.35 / 0.73 / 0.86 | 1 of 18 (2.02)
GFSLDEYGIS | VIYADGMRTFYQDDVK | GNVAGTFDS | -0.59 / -0.57 / -0.59 / -0.41 / -0.67 / -0.34 | 0 of 18
GFQLDEYGIS | VIYADGRRTFYTDSVK | GEVAGTFDV | -0.66 / -1.04 / -1.19 / -0.74 / -0.86 / -0.85 | 0 of 18
GFDLNEYGIS | VIYADGRRTFYADSVK | GEVAGTFLS | 0.29 / -0.07 / 0.10 / -0.06 / 0.16 / 0.00 | 0 of 18
GFDLNEYGIS | VIYADGKRTSYADSVK | GQLAGTFDQ | -0.79 / -0.74 / -0.75 / -0.71 / -0.66 / -0.44 | 1 of 18 (2.39)
GFDLDEYGIS | VIYADGMRTFYTDSVK | GEAAGTFDQ | -0.18 / 0.14 / -0.09 / 0.20 / -0.41 / -0.11 | 0 of 18
GFDLNEYGIS | VIYADGKRTFYADSVK | GEIAGTFDV | 1.02 / 0.79 / 0.62 / 0.86 / 0.40 / 0.64 | 0 of 18
GFDLNEYGIS | VIYADGMRTFYSDSVK | GNVGGSFDV | 0.05 / -0.22 / -0.16 / -0.03 / -0.29 / 0.23 | 1 of 18 (2.33)
GFDLNEYGIS | VIYADGQRTAYADSVK | GKAAGTFDT | -0.15 / -0.72 / -1.16 / -0.59 / 0.01 / -0.89 | 0 of 18
GFDLNEYGIS | VIYADGRRTFYSDSVK | GEAAGTFNM | -0.64 / -0.87 / -0.78 / -0.71 / -0.52 / -0.69 | 0 of 18
GFDLNEYGIS | VIYADGRRTFYSDSVK | GHTAGTFIQ | 0.42 / 0.12 / 0.22 / -0.28 / 0.00 / 0.48 | 0 of 18
GFDLNEYGIS | VIYADGRRTSYADSVK | GEAAGTFDV | -0.34 / -0.20 / -0.44 / 0.04 / -0.67 / 0.24 | 0 of 18
GFDLDEYGIS | VIYADGRRTFYSDSVK | GQNAGTFDQ | 0.69 / -0.43 / -0.29 / -0.64 / 0.37 / -0.23 | 0 of 18
GFDLNEYGIS | VIYADGQRTAYADSVK | GKVAGTFDF | -0.34 / -0.06 / -0.30 / -0.56 / -0.28 / -0.09 | 0 of 18
GFDLNEYGIS | VIYADGVRTFYSDSVK | GEAAGTFDV | 0.14 / -0.37 / -0.42 / -0.01 / -0.33 / -0.22 | 1 of 18 (1.80)
GFDLNEYGIS | VIYADGVRTFYADSVK | GNQAGTFDS | -0.10 / -0.30 / -0.48 / -0.43 / -0.30 / -0.16 | 0 of 18
GFDINEYGIS | VIYADGRRTQYADSVK | GENAGTFDS | ND / 0.14 / ND / ND / ND / ND | 0 of 18
GFDLDEYGIS | VIYADGMRTFYADSVK | GSNAGTFDQ | 0.03 / -0.40 / -0.33 / -0.68 / -0.25 / -0.44 | 1 of 18 (3.60)
GFDLNEYGIS | VIYADGQRTFYADSVK | GNVAGTFDK | 0.66 / -0.09 / 0.39 / -0.21 / -0.38 / 0.13 | 0 of 18
GFDLNEYGIS | VIYADGRRTAYIDSVK | GEIAGTFDL | -0.42 / -0.23 / -0.33 / -0.55 / -0.95 / -0.44 | 1 of 18 (3.74)
GFDLNEYGIS | VIYADGRRTAYSDSVK | GGNAGFFDK | ND / ND / ND / ND / ND / ND | 0 of 18
GFDLNEYGIS | VIYADGQRTFYADSVK | GQLAGTFSV | -0.69 / -0.90 / -0.55 / -0.76 / -0.66 / -0.85 | 0 of 18
GFSLDEYGIS | VIYADGRRTFYQDDVK | GNVAGTFDT | -0.58 / -0.67 / -0.87 / -0.86 / -0.73 / -0.81 | 1 of 18 (2.02)
GFNLDEYGIS | VIYADGRRTFYADSVK | GQHAGTFDT | -0.10 / -1.18 / -0.87 / -1.12 / -0.74 / -0.46 | 0 of 18
GFDLNEYGIS | VIYADGMRTFYADSVK | GNVAGTFDS | -0.38 / -0.23 / -0.30 / -0.52 / -0.55 / -0.48 | 1 of 18 (1.10)
GFNLDEYGIS | VIYADGRRTFYADSVK | GNHAGTFDT | 0.52 / 0.33 / 0.71 / 1.55 / 0.14 / -0.12 | 0 of 18
GFDLESYGIS | VIYADGRRTFYADKVK | GNNAGTFDI | 0.80 / 0.03 / 0.89 / 1.55 / 0.57 / 0.58 | 1 of 18 (1.72)

The closing 5 entries, repeated:

| CDR-H1 | CDR-H2 | CDR-H3 | log10 Kd, replicates | signal with controls |
|---|---|---|---|---|
| GFSLDEYGIS | VIYADGRRTFYQDDVK | GNVAGTFDT | -0.58 / -0.67 / -0.87 / -0.86 / -0.73 / -0.81 | 1 of 18 (2.02) |
| GFNLDEYGIS | VIYADGRRTFYADSVK | GQHAGTFDT | -0.10 / -1.18 / -0.87 / -1.12 / -0.74 / -0.46 | 0 of 18 |
| GFDLNEYGIS | VIYADGMRTFYADSVK | GNVAGTFDS | -0.38 / -0.23 / -0.30 / -0.52 / -0.55 / -0.48 | 1 of 18 (1.10) |
| GFNLDEYGIS | VIYADGRRTFYADSVK | GNHAGTFDT | 0.52 / 0.33 / 0.71 / 1.55 / 0.14 / -0.12 | 0 of 18 |
| GFDLESYGIS | VIYADGRRTFYADKVK | GNNAGTFDI | 0.80 / 0.03 / 0.89 / 1.55 / 0.57 / 0.58 | 1 of 18 (1.72) |

In the paper, a design with two or fewer of six values counts as a poor binder.
The parent sequence was in this pool as ten entries: three were never detected, three once, and four in most replicates, with averages from 0.34 to 2.37.
Nonspecific signal, from three strains lacking the peptide, appeared in 1% of pairings of all heavy chain designs, centred on 2.08 (5% of these signals below 0.84); values are not corrected for it. The control count says in how many pairings with the empty strains this scFv gave a signal, with their mean in brackets.